Among the data in patent publication US7563809B2, “Nociceptin analogs” (dated 2009) are Ki values, retold here.

The first experiment concerns the target Mu opioid receptor (Homo sapiens, UniProt P35372). The experiment can be described thus: Affinity at the μ receptor ([35S]GTPγS binding, membranes). The note with it: read-out: Mu Receptor Affinity calc Ki, Table 3.
A word on the Ki: it is a measure of affinity in units of concentration, obtained from inhibition or displacement. As to `O=C1CCc2ccccc2N1C1CCN(C2CC3CCC2C3)CC1` (centres unmarked), the Ki was 957 nM. The same measure, in the same setting: to `O=C1CCc2ccccc2N1C1CCN(C2CCC3CCCCC3C2)CC1` (centres unmarked) belongs 341 nM.

As to `O=C1CCc2ccccc2N1C1CCN(C2CCCCCCC2)CC1`, the Ki is 86 nM.

A further experiment addresses human opioid receptor-like receptor (ORL-1) (Homo sapiens, UniProt P41146). The experiment can be described thus: Nociceptin affinity at the ORL1 receptor ([35S]GTPgS binding, membranes of recombinant HEK-293 cells). Conditions: read-out: Nociceptin Affinity calc Ki; Table 1; ORL-1 membranes from recombinant HEK-293 cells; benzothiadiazole/benzothiadiazine series.
As to `CC(C)C1CCC(N2CCC(N3c4ccccc4NS3(=O)=O)CC2)CC1` (centres unmarked), the inhibition constant Ki is 357 nM. On the same count and under the same terms, to `CC(C)C1CCC(N2CCC(N3c4ccccc4CN(CCO)S3(=O)=O)CC2)CC1` (centres unmarked) belongs 7.4 nM; to `COC(=O)CN1Cc2ccccc2N(C2CCN(C3CCC(C(C)C)CC3)CC2)S1(=O)=O` (centres unmarked), 41 nM. On the same count and under the same terms, to `CCCCN1Cc2ccccc2N(C2CCN(C3CCC(C(C)C)CC3)CC2)S1(=O)=O` (centres unmarked) belongs 18 nM. Same read-out and setting: with `O=S1(=O)Nc2ccccc2N1C1CCN(C2CCC3CCCCC3C2)CC1` (centres unmarked) the figure was 225 nM.

In the case of `CCCCOC(=O)CN1Cc2ccccc2N(C2CCN(C3CCC(C(C)C)CC3)CC2)S1(=O)=O` (centres unmarked), the Ki is 63 nM. Same read-out and setting: with `CC(C)C1CCC(N2CCC(N3c4ccccc4CN(CCNS(C)(=O)=O)S3(=O)=O)CC2)CC1` (centres unmarked) the figure was 5 nM; with `O=S1(=O)Nc2ccccc2N1C1CCN(CC2CCCCCCC2)CC1`, 49 nM.

Staying with this experiment, now noted: read-out: Nociceptin Affinity calc Ki; Table 2; ORL-1 membranes from recombinant HEK-293 cells; quinolin-2-one series.
For the molecule `O=C1CCc2ccccc2N1C1CCN(CCCC(c2ccc(F)cc2)c2ccc(F)cc2)CC1`, the Ki was 2900 nM. In the case of `O=C1CCc2ccccc2N1C1CCN(C2CC3CCC2C3)CC1` (centres unmarked), the Ki is 781 nM. Still for that read-out and setting: with `O=C1CCc2ccccc2N1C1CCN(Cc2ccc3ccccc3c2)CC1` the figure was 3390 nM. Still for that read-out and setting: with `O=C1CCc2ccccc2N1C1CCN(C2CCc3ccccc3C2)CC1` (centres unmarked) the figure was 176 nM; with `CCCC1CCC(N2CCC(N3C(=O)CCc4ccccc43)CC2)CC1` (centres unmarked), 1260 nM. Same read-out and setting: to `O=C1CCc2ccccc2N1C1CCN(Cc2ccc(-c3ccccc3)cc2)CC1` belongs above 10000 nM; to `O=C1CCc2ccccc2N1C1CCN(C2CCC3CCCCC3C2)CC1` (centres unmarked), 105 nM; to `O=C1CCc2ccccc2N1C1CCN(Cc2ccc(OCc3ccccc3)cc2)CC1`, 3500 nM. As for `O=C1CCc2ccccc2N1C1CCN(CCC(c2ccccc2)c2ccccc2)CC1`, the Ki is 71 nM. Still for that read-out and setting: to `O=C1CCc2ccccc2N1C1CCN(C2Cc3ccccc3C2)CC1` belongs 71 nM; to `O=C1CCc2ccccc2N1C1CCN(C2CCCCCCC2)CC1`, 14 nM; to `O=C1CCc2ccccc2N1C1CCN(C2c3ccccc3CCc3ccccc32)CC1`, 95 nM.
